Results reported in paper PMC12136991 (ACS chemical neuroscience, 2025).

Chains of the proteins cited; added tags and fusions are not shown. Lines headed by an entry give the natural chain unless they say otherwise; changes in a name come on top.
UniProt P41145: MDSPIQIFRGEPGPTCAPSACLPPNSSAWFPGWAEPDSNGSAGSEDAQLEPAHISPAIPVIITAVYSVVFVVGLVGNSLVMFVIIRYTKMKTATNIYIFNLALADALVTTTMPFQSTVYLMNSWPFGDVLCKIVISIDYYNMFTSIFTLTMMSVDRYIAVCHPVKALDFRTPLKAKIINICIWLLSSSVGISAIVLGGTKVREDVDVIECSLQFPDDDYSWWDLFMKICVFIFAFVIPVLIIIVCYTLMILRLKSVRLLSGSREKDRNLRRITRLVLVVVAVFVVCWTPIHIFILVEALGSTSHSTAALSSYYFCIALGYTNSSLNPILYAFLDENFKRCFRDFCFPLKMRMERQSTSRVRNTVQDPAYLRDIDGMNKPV

Target: human κ-opioid receptor (OPRK1) (Homo sapiens, UniProt P41145)
Experiment: Forskolin-induced cAMP accumulation assay, KOR antagonist mode
Details: versus EC90 of U50488H; normalized to nor-BNI

## Oc1ccc2c3c1O[C@H]1c4[nH]c5c(c4C[C@@]4(O)[C@@H](C2)N(CC2CC2)CC[C@]314)C[C@@]1(O)[C@H]2Cc3ccc(O)c4c3[C@@]1(CCN2CC1CC1)[C@H]5O4 [Nor-BNI, reference compound]
  KOR Antagonist %Imax ± SEM: 102.4 ± 1.2%
